Source: US20140363486A1, “METHODS FOR REDUCING OR ALTERING SCAR FORMATION” (Prelief, Inc., priority 2007, published 2014)

Experiment: Solubility and natural pH of CGP
Type: physicochemical

## calcium glycerophosphate [CGP]
  natural pH: about 8.4
alcohol
  solubility in alcohol: insoluble
water
  solubility in water: only sparingly soluble
